Experimental data published in patent US8921306B2, “Nociceptin mimetics” (The University of Queensland, priority 2010, dated 2014).
Like-named read-outs stand apart in the source and are kept apart here. Marks after values point to notes of the source that are not given here.

Sequences of proteins named here, by UniProt entry; tags and fusion partners are left off. A change or cut given only in a name is not applied to a line headed by its entry.
UniProt P35377: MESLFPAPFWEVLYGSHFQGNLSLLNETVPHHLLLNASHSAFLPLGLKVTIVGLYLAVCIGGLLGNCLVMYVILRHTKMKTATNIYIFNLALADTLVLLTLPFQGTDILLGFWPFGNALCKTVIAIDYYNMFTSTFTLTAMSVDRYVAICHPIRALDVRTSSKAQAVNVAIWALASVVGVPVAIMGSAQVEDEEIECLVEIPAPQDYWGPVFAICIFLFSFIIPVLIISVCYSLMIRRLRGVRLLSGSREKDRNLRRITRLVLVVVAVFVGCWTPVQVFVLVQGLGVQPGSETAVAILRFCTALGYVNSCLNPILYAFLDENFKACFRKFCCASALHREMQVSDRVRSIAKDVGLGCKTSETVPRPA

What was measured:
[1] = Circular dichroism spectroscopy (helicity); assay type: physicochemical; conditions: for θ222/208 (buffer) / fH (buffer): 10 mM phosphate buffer (pH 7.4) at 22° C.; for fH (buffer): fH calculated based on θ at 222 nm; for fH (TFE*): buffer: TFE 50:50
Description: CD measurements were performed using a Jasco model J-710 spectropolarimeter which was routinely calibrated with (1S)-(+)-10-camphorsulfonic acid. A stock solution of 1-2 mg of peptide was dissolved in 1 mL of water. Separate 500 μL solutions of 50, 100, 200 and 400 μM were then prepared using an appropriate amount of stock solution and making up the different with 10 mM Phosphate Buffer (final pH 7.1). […] Jasco quartz cell over the wavelength range 260-185 nm at 100 nm/min. with a bandwidth of 1.0 nm, response time of 2 s, resolution step width of 1 nm and sensitivity of 20-50 Mdeg. Each spectrum represents the average of 5 scans. Spectra were analyzed using the spectral analysis software and smoothed using ‘adaptive smoothing’ function. Concentrations were determined using the PULCON method. [Wider, Dreier, 2006, J. Am. Chem. Soc. 128:2571-2576]
The incorporation of two lactam bridges induced appreciable helicity, monitored at 222 nm, and was calculated to range between 32-77% helicity. By comparison, the unconstrained nociceptin peptides (SEQ ID NOs:1-5, 9 and 10) had less than 6% α-helicity in water. […] This is due to the fact that residues 1-6 (or 1-5 in 6) are not constrained and would not be expected to be in a helical conformation as they feature amino acids that have little or no propensity to adopt helices in proteins. To determine whether the exocyclic regions were the sole cause of low helicity, SEQ ID NO:15 without the N-terminal message was investigated further. This 12-residue peptide features eight residues (K, R, Q) known to favor α-helicity in proteins, and was 60% helical in phosphate buffer by CD spectral analysis. The serine residue is conserved within the sequence of many of these peptides and is known to be a helix breaker.

ORL-1 receptor = biological target: T1, ORL-1 receptor (Mus musculus, UniProt P35377); experiment: Agonist functional activity assessed by ERK phosphorylation (pERK) in Neuro-2a cells; assay type: cell-based; conditions: for Emax: N2a, agonist pERK, controls PBS (0%) and 1 μM nociceptin1-17-OH (100%); for -log EC50 ± SEM / EC50 / log EC50: agonist pERK activity; for -log EC50 ± SEM / EC50: Neuro-2a cells; for EC50: read-out: EC50; for log EC50: printed as log EC50 with negative sign
T1 construct: Neuro-2a cells were a gift from Professor John Mattick's laboratory; endogenous in cells; host or cells: Neuro-2a cells
Description: Neuro-2a cells were a gift from Professor John Mattick's laboratory (Institute of Molecular Bioscience, University of Queensland) and were cultured in Gibco® DMEM (Invitrogen, CA, USA) supplemented with 10% FBS (Invitrogen, CA, USA), GIBCO® Pen/Strep (50 units/mL penicillin and 50 μg/mL streptomycin, Invitrogen, CA, USA) and GIBCO® NEAA (1× concentration, Invitrogen, CA, USA). Cells were split 1:10 every 3 days.
All cells were incubated at 37° C. and 5% CO2. When treated with pertussis toxin (PTX, catalogue number P7208, Sigma-Aldrich, NY, USA), cells were incubated with 500 ng/mL for 15 hours before use. Cells treated with MEK inhibitor PD98059 (catalogue number PHZ1164, Invitrogen, CA, USA) were preincubated with 50 μM for 1 hour before use.
Cells were placed in 12-well plates (NUNC™, NY, USA) and allowed to adhere for 24-36 h. […] For agonist assays, cells were challenged with compounds for 35 minutes and incubated at 37° C. (5% CO2).
Membranes were washed 3×10 minutes with TBE (with 0.1% Tween-20) and incubated with a primary antibody. For pERK, rabbit polyclonal ERK1+2 [pTpY185/187] […] Instead, rabbit IgG Phospho-ERK1 (T202/Y204)/ERK2 (T185/Y187) (1:2000, catalogue number AF1018, R&D Systems, MN, USA) was used. […] After multiple washes, the membranes were developed using ECL Detection Solution (Amersham Biosciences) and visualized using photographic film. Radiography was quantified using ImageJ (ImageI 1.36b, NIH).
pERK and total ERK concentrations were determined using a modified protocol for the AlphaScreen Surefire Assay. The modified protocol used half the volume of reagents recommended in the manufacturers' protocol with 2 μL of cell extract in both pERK and total ERK assays. The ratio of pERK to total ERK was determined using equation 1 and normalized to control. For agonist responses, the controls used were PBS (0%) and 1 μM nociceptin1-17-OH (100%). For antagonist responses, the controls used were PBS (100%) and 100 nM nociceptin1-17-NH2 (100%).
Concentration responses were analyzed using non-linear regression (variable slope) (Prism5, GraphPad Software) and data is presented as either EC50 (for agonists) or IC50 (antagonists).
Helix constrained and unconstrained peptides were pre-screened using the pERK assay at a single concentration.

| SMILES | θ222/208 (buffer) [1] | fH (buffer) [1] | fH (TFE*) ([1]; 22° C.) | Emax (ORL-1 receptor) [%] | -log EC50 ± SEM (ORL-1 receptor; 35 minutes) | EC50 (ORL-1 receptor; 35 minutes) [nM] | also measured |
| --- | --- | --- | --- | --- | --- | --- | --- |
| CC(C)C[C@H](NC(=O)[C@H](CCCCN)NC(=O)[C@H](CCCNC(=N)N)NC(=O)[C@H](C)NC(=O)[C@H](CO)NC(=O)[C@H](CCCCN)NC(=O)[C@H](CCCNC(=N)N)NC(=O)[C@H](C)NC(=O)CNC(=O)[C@@H](NC(=O)[C@H](Cc1ccc(F)cc1)NC(=O)CNC(=O)CNC(=O)[C@@H](N)Cc1ccccc1)[C@@H](C)O)C(=O)N[C@@H](CCCCN)C(=O)N[C@@H](CC(N)=O)C(=O)N[C@@H](CCC(N)=O)C(N)=O [compound 3] | −0.10 | 0.02 | 0.10 | 108 ± 9 | 9.44 ± 0.12 | 0.36 | – |
| C[C@@H]1NC(=O)[C@@H](NC(=O)[C@H](CCCCN)NC(=O)[C@H](CCCNC(=N)N)NC(=O)[C@@H]2CC(=O)NCCCC[C@H](NC(=O)CNC(=O)[C@@H](NC(=O)[C@H](Cc3ccccc3)NC(=O)CNC(=O)CNC(=O)[C@@H](N)Cc3ccccc3)[C@@H](C)O)C(=O)N[C@@H](CCCNC(=N)N)C(=O)N[C@@H](CCCCN)C(=O)N[C@@H](CO)C(=O)N2)CCCCNC(=O)C[C@@H](C(N)=O)NC(=O)[C@H](CCC(N)=O)NC(=O)[C@H](CC(N)=O)NC1=O [compound 7] | 0.91 | 0.32 | – | 94 ± 3 | 9.22 ± 0.08 | 0.61 | – |
| CC(=O)NCCCC[C@H](NC(=O)CNC(=O)[C@@H](NC(=O)[C@H](Cc1ccccc1)NC(=O)CNC(=O)CNC(=O)[C@@H](N)Cc1ccccc1)[C@@H](C)O)C(=O)N[C@@H](CCCNC(=N)N)C(=O)N[C@@H](CCCCN)C(=O)N[C@@H](CO)C(=O)N[C@@H](CC(N)=O)C(=O)N[C@@H](CCCNC(=N)N)C(=O)N[C@@H](CCCCN)C(=O)N[C@@H](CCCCNC(C)=O)C(=O)N[C@@H](C)C(=O)N[C@@H](CC(N)=O)C(=O)N[C@@H](CCC(N)=O)C(=O)N[C@@H](CC(N)=O)C(N)=O [compound 4] | 0.03 | 0.03 | 0.13 | 99 ± 8 | 6.45 ± 0.08 | – | – |
| C[C@H](NC(=O)[C@H](CCC(N)=O)NC(=O)[C@H](CC(N)=O)NC(=O)[C@H](C)NC(=O)[C@H](C)NC(=O)[C@H](CCCCN)NC(=O)[C@H](CCCNC(=N)N)NC(=O)[C@H](C)NC(=O)[C@H](CO)NC(=O)[C@H](CCCCN)NC(=O)[C@H](CCCNC(=N)N)NC(=O)[C@H](C)NC(=O)CNC(=O)[C@@H](NC(=O)[C@H](Cc1ccccc1)NC(=O)CNC(=O)CNC(=O)[C@@H](N)Cc1ccccc1)[C@@H](C)O)C(N)=O [compound 5] | −0.11 | 0.02 | 0.21 | 93 ± 7 | 8.42 ± 0.15 | – | – |
| C[C@@H](O)[C@H](NC(=O)[C@H](Cc1ccc(F)cc1)NC(=O)CNC(=O)CNC(=O)[C@@H](N)Cc1ccccc1)C(=O)NCC(=O)N[C@H]1CCCCNC(=O)C[C@@H](C(=O)N[C@@H](CCCNC(=N)N)C(=O)N[C@@H](CCCCN)C(=O)N[C@H]2CCCCNC(=O)C[C@@H](C(N)=O)NC(=O)[C@H](CCC(N)=O)NC(=O)[C@H](CC(N)=O)NC(=O)[C@H](CCCCN)NC2=O)NC(=O)[C@H](CO)NC(=O)[C@H](CCCCN)NC(=O)[C@H](CCCNC(=N)N)NC1=O [compound 8] | 0.90 | 0.45 | – | 101 ± 6 | 10.40 ± 0.11 | 0.04 | fH (TFE*) ([1]; determined at 25° C.): 0.93^# |
| CC(C)C[C@H](NC(=O)[C@H](CCCCN)NC(=O)[C@H](CCCNC(=N)N)NC(=O)[C@H](C)NC(=O)[C@H](CO)NC(=O)[C@H](CCCCN)NC(=O)[C@H](CCCNC(=N)N)NC(=O)[C@H](C)NC(=O)CNC(=O)[C@@H](NC(=O)[C@H](Cc1ccc(F)cc1)NC(=O)CNC(=O)CNC(=O)CNCc1ccccc1)[C@@H](C)O)C(=O)N[C@@H](CCCCN)C(=O)N[C@@H](CC(N)=O)C(=O)N[C@@H](CCC(N)=O)C(N)=O [SEQ ID NO:10] | – | – | – | – | – | – | agonist activity at single point concentration (ORL-1 receptor; 1 μM): neither showed significant agonist activity |
| CC(C)C[C@H](NC(=O)[C@H](CCCCN)NC(=O)[C@H](CCCNC(=N)N)NC(=O)[C@H](C)NC(=O)[C@H](CO)NC(=O)[C@H](CCCCN)NC(=O)[C@H](CCCNC(=N)N)NC(=O)[C@H](C)NC(=O)CNC(=O)[C@@H](NC(=O)[C@H](Cc1ccccc1)NC(=O)CNC(=O)CNC(=O)[C@@H](N)Cc1ccccc1)[C@@H](C)O)C(=O)N[C@@H](C)C(=O)N[C@@H](CC(N)=O)C(=O)N[C@@H](CCC(N)=O)C(N)=O [compound 2] | – | 0.02 | 0.10 | – | – | – | – |
| C[C@@H]1NC(=O)[C@@H](NC(=O)[C@H](CCCCN)NC(=O)[C@H](CCCNC(=N)N)NC(=O)[C@@H]2CC(=O)NCCCC[C@H](NC(=O)CNC(=O)[C@@H](NC(=O)[C@H](Cc3ccccc3)NC(=O)CNC(=O)CNC(=O)[C@@H](N)Cc3ccccc3)[C@@H](C)O)C(=O)N[C@@H](CCCNC(=N)N)C(=O)N[C@@H](CCCCN)C(=O)N[C@@H](CO)C(=O)N2)CCCCNC(=O)C[C@@H](C(N)=O)NC(=O)[C@H](CCC(N)=O)NC(=O)[C@H](CC(N)=O)NC1=O [SEQ ID NO:7, H-FGGFTG[KRKSD]RK[KANQD]-NH2] | – | – | – | – | – | – | EC50 (ORL-1 receptor): 0.61 nM; log EC50 (ORL-1 receptor): −9.22±0.08 |
| CC(=O)NCCCC[C@H](NC(=O)CNC(=O)[C@@H](NC(=O)[C@H](Cc1ccccc1)NC(=O)CNC(=O)CNC(=O)[C@@H](N)Cc1ccccc1)[C@@H](C)O)C(=O)N[C@@H](CCCNC(=N)N)C(=O)N[C@@H](CCCCN)C(=O)N[C@@H](CO)C(=O)N[C@@H](CC(N)=O)C(=O)N[C@@H](CCCNC(=N)N)C(=O)N[C@@H](CCCCN)C(=O)N[C@@H](CCCCNC(C)=O)C(=O)N[C@@H](C)C(=O)N[C@@H](CC(N)=O)C(=O)N[C@@H](CCC(N)=O)C(=O)N[C@@H](CC(N)=O)C(N)=O [SEQ ID NO:4, H-FGGFTGK(Ac)RKSNRKK(Ac)ANQN-NH2] | – | – | – | – | – | 360 | – |
| C[C@H](NC(=O)[C@H](CCC(N)=O)NC(=O)[C@H](CC(N)=O)NC(=O)[C@H](C)NC(=O)[C@H](C)NC(=O)[C@H](CCCCN)NC(=O)[C@H](CCCNC(=N)N)NC(=O)[C@H](C)NC(=O)[C@H](CO)NC(=O)[C@H](CCCCN)NC(=O)[C@H](CCCNC(=N)N)NC(=O)[C@H](C)NC(=O)CNC(=O)[C@@H](NC(=O)[C@H](Cc1ccccc1)NC(=O)CNC(=O)CNC(=O)[C@@H](N)Cc1ccccc1)[C@@H](C)O)C(N)=O [SEQ ID NO:5] | – | – | – | – | – | 4 | – |
| CC(C)C[C@@H]1NC(=O)[C@H](CCCCN)NC(=O)[C@H](CCCNC(=N)N)NC(=O)[C@@H](NC(=O)[C@@H]2CC(=O)NCCCC[C@H](NC(=O)[C@@H](NC(=O)[C@H](Cc3ccccc3)NC(=O)CNC(=O)CNC(=O)[C@@H](N)Cc3ccccc3)[C@@H](C)O)C(=O)N[C@@H](C)C(=O)N[C@@H](CCCNC(=N)N)C(=O)N[C@@H](CCCCN)C(=O)N2)CCCCNC(=O)C[C@@H](C(N)=O)NC1=O [SEQ ID NO:6, H-FGGFT[KARKD][KRKLD]-NH2] | – | – | – | – | – | 3 | log EC50 (ORL-1 receptor): −8.51±0.14 |
